Assay results published in ChEMBL document CHEMBL5537191, “Rebamipide and Derivatives are Potent, Selective Inhibitors of Histidine Phosphatase Activity of the Suppressor of T Cell Receptor Signaling Proteins” (J Med Chem, 2024).

By UniProt entry, the sequences of proteins in these tests, tags left out. Where a name states a change or a piece, a line headed by the entry shows the natural chain unless it says otherwise.
UniProt P29350: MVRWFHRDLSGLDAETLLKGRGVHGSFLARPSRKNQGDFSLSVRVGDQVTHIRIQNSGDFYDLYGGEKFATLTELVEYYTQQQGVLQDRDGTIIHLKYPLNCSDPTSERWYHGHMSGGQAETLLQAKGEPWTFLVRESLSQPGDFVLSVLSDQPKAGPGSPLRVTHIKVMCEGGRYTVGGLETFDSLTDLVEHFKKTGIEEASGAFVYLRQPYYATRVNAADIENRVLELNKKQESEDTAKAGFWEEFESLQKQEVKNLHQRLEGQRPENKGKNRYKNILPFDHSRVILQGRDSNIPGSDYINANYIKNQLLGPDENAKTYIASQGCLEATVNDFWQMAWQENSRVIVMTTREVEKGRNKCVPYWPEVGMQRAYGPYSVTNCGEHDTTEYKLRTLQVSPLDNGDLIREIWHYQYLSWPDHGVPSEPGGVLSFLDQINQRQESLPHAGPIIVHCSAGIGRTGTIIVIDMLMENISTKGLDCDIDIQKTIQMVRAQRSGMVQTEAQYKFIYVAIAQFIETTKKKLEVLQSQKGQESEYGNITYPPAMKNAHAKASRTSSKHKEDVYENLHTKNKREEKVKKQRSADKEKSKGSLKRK

Assays:
[1] = target: T1, Tyrosine-protein phosphatase non-receptor type 1 (Homo sapiens) (UniProt P18031); experiment: (§1) Inhibition of recombinant human PTP-1B (1 to 321 residues) phosphatase activity expressed in Escherichia coli incubated for 20 mins by spectrophotometric analysis
T1 sequence (whole entry): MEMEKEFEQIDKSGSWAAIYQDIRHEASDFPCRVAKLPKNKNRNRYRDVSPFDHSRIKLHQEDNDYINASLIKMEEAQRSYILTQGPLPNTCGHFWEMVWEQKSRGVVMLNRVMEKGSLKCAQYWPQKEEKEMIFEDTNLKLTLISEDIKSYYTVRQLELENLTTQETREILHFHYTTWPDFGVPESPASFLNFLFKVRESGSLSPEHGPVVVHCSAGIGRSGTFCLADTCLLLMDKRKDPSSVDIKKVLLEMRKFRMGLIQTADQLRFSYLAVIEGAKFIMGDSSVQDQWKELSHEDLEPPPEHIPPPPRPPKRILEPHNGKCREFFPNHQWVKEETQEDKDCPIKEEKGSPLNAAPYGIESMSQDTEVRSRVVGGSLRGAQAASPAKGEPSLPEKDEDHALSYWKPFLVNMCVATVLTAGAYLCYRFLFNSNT

[2] = target: Tyrosine-protein phosphatase non-receptor type 6 (Homo sapiens) (UniProt P29350); experiment: Inhibition of recombinant human SHP1 (243 to 541 residues) phosphatase activity expressed in Escherichia coli incubated for 20 mins by spectrophotometric analysis
[3] = target: T2, Receptor-type tyrosine-protein phosphatase C (Homo sapiens) (UniProt P08575); experiment: (§2) Inhibition of recombinant human CD45 (604 to 1304 residues) phosphatase activity expressed in baculovirus infected Sf9 incubated for 20 mins by spectrophotometric analysis
T2 sequence (whole entry): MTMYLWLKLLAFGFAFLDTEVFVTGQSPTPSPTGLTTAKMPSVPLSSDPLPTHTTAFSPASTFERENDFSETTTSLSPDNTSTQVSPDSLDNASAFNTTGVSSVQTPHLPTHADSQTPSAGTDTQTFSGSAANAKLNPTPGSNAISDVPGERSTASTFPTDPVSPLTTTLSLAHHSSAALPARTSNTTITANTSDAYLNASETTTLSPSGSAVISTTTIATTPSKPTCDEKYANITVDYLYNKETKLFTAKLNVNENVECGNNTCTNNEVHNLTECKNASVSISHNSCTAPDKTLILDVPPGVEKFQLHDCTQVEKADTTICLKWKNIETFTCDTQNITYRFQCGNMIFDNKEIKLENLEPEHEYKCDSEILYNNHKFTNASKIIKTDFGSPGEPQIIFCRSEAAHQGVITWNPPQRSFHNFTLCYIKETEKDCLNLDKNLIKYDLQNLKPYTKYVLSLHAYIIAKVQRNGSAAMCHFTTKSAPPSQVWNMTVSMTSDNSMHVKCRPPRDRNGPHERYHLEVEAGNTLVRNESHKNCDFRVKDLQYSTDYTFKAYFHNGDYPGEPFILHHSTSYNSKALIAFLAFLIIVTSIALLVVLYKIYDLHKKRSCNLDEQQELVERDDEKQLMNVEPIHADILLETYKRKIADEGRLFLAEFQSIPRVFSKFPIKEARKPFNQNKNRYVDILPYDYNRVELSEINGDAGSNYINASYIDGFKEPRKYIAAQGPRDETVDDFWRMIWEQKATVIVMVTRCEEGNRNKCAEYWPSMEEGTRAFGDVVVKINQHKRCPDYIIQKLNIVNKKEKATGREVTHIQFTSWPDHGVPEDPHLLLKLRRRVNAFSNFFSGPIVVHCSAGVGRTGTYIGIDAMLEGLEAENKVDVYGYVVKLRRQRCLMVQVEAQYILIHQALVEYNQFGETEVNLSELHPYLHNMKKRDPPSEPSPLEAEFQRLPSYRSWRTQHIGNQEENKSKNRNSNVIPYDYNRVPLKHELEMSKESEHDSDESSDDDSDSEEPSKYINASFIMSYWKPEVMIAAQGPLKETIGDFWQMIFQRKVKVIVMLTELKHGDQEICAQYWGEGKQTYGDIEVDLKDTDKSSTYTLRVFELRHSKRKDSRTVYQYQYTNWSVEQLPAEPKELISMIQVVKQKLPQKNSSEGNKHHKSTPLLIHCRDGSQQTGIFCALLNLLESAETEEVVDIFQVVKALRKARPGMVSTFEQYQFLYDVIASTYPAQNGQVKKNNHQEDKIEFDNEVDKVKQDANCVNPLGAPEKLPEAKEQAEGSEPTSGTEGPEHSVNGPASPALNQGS

[4] = target: Tyrosine-protein phosphatase non-receptor type 1 (Homo sapiens) (UniProt P18031); experiment: as §1; remark: listed apart in the source
[5] = target: Receptor-type tyrosine-protein phosphatase C (Homo sapiens) (UniProt P08575); experiment: as §2; remark: listed apart in the source

Measured: inhibition

O=C1/C(=N/Nc2ccc(S(=O)(=O)O)cc2)C(c2ccc([N+](=O)[O-])cc2)=NN1c1ccccc1
active: [1] | [2] | [3]

SODIUM ORTHOVANAD
active: [4] | [2] | [5]

Calls of active or inactive are those of the source.
